# Values quoted from earlier work, collected in PMC8629808.
# System: male Sprague–Dawley rats
# Details: 32 mg/kg s.c., ref Geller et al. 1983
compound,measurement,value
CN1CC[C@]23c4c5ccc(O)c4O[C@H]2[C@@H](O)C=C[C@H]3[C@H]1C5,decrease in core body temperature,about 1.5 °C
